The results in this text go back to ChEMBL document CHEMBL5625233, “Exploring positions 6 and 7 of a quinazoline-based scaffold leads to changes in selectivity and potency towards RIPK2/3 kinases” (Eur J Med Chem, 2023).

Protein sequences, listed by entry. Tags and fused reporters are not part of them.
UniProt O43353, whole entry: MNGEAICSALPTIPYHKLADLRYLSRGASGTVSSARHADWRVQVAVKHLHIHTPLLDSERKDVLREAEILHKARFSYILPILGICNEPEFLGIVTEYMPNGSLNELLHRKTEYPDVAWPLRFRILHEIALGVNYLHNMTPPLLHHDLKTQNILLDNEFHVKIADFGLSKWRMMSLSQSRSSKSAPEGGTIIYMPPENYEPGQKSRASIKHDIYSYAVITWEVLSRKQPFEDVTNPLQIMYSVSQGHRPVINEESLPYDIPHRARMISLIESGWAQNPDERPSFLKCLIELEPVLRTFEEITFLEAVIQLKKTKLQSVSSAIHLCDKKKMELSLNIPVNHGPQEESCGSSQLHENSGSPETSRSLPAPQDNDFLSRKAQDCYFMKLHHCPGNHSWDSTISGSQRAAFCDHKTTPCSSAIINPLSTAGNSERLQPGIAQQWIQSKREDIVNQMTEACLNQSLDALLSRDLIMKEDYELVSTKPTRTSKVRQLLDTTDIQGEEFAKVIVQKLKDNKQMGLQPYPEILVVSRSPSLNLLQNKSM

Active and inactive are the calls of the source. The calls are words filed in the database; no cut-off is given here.

The target of the test is Receptor-interacting serine/threonine-protein kinase 2 (Homo sapiens, UniProt O43353). As to the kind of experiment: Inhibition of N-terminal polyHis-tagged human RIPK2 (8 to 310 residues) expressed in Sf9 cells using MBP as substrate upto 10 uM preincubated for 15 mins followed by ATP addition measured after 90 mins by ADP-Glo assay. As to conditions: time 105.0 min.
On to `Cc1csc(-c2cc3c(Nc4ccc5scnc5c4)ncnc3cc2Cl)n1`, for which the inhibition entry is “inactive”. With `Clc1cc2ncnc(Nc3ccc4scnc4c3)c2cc1-c1ccccc1` the entry was “inactive”; with `Cc1nc(-c2cc3c(Nc4ccc5scnc5c4)ncnc3cc2Cl)sc1C`, “inactive”.
